According to article PMC3983356 (The Journal of Physical Chemistry. B, 2014):

Legend:
Type in all cases: cell-based
HEK 293A cells [1] = system: HEK 293A cells
Method in brief: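 HEK 293A cells (passages 12–17) detached with detachin, rested in serum-free medium, then 1.5, 5, 10 or 15 million cells in ECS incubated 15 min with graded detergent. Cells were pelleted at 1000 rpm, resuspended in ECS and patched on an IonFlux 16 ensemble whole-cell system with K-aspartate intracellular solution. Time-averaged current over the first 4 min served as the permeability read-out. Detergent giving a 1 nA rise ×15 estimated the onset. Onset concentration vs lipid concentration was fitted linearly: slope Rb, intercept Dw.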

HEK 293A cells [2] = test: Fluorescence microscopy of patched cells
HEK 293A cells [3] = test: Ensemble whole cell patch clamp

Structure (SMILES): CCCCCCCCCCCCCCCC[N+](C)(C)C [CTAB, cetyltrimethylammonium bromide]
- relative ratio of lipid to detergent in cell membranes at the onset of membrane permeability (SDS:CTAB:ORB) (HEK 293A cells [1]; quiescent conditions): 7
- Rb ± standard error (ratio of detergent to lipid in the bilayer at the onset of increased permeability) (HEK 293A cells [1]; quiescent, 15 min pretreatment, 1.5–15 million cells): 0.3 and 0.3 ± 0.1
- state of cells after detergent treatment (PKH26 fluorescence) (HEK 293A cells [2]; 0.04 mM SDS, 0.001 mM CTAB, 15 min): intact
- state of cells after detergent treatment (PKH26 fluorescence) (HEK 293A cells [2]; 0.2 mM SDS, 0.1–10 mM CTAB, 15 min): intact
- state of cells after detergent treatment (PKH26 fluorescence) (HEK 293A cells [2]; 0.001 and 0.01 mM CTAB): intact
- behavior of current traces relative to groups (HEK 293A cells [3]; 0.01 mM CTAB): midway between groups I and II
- steady current level relative to open channel level (HEK 293A cells [3]; 0.2 mM SDS, 0.1, 1 and 10 mM CTAB): approximately half the open channel levels
- relative activity for plasma membrane current induction (SDS:CTAB:ORB) (HEK 293A cells [3]; superfusion/flow conditions, as function of concentration): 20

Several values for one entry are separate records, joined by “and”; a condition that tells them apart may be missing. Equal entries are not always repeated.
